This is an account of results in PMC7677376 (Cell Discovery, 2020).

The term Km denotes the substrate concentration at which the rate is half of its maximum.

This data set has as its system Nc1ncnc2c1ncn2[C@@H]1O[C@H](COP(=O)(O)OP(=O)(O)OP(=O)(O)O)[C@@H](O)[C@H]1O. Nature of the data set: purified protein. The note with it: MlaFEDB complex; ATP hydrolysed at MlaF.

Take MlaFEDB (Acinetobacter baumannii): the Km was determined as 0.085 ± 0.005 mM.
